This data set is described as follows: Acid dissociation constant, pKa of the compound by UV-visible spectrophotometry.

The structures appear in SMILES notation.

As for `O=C(C[n+]1cccc(/C=N/O)c1)Nc1nccs1.[Cl-]`, the pKa (in general, the pH at which an ionisable group is half protonated) was determined as 8.47.

In turn, `O=C(C[n+]1cccc(/C=N/O)c1)Nc1nc(-c2ccccc2)cs1.[I-]` returned a pKa of 8.85.

As for `CCOC(=O)Cc1csc(NC(=O)C[n+]2ccc(/C=N/O)cc2)n1.[Cl-]`, the pKa is 8.42.

The compound `COc1ccc(-c2csc(NC(=O)C[n+]3cccc(/C=N/O)c3)n2)cc1.[I-]` yielded a pKa of 8.92.

In the case of `CCOC(=O)Cc1csc(NC(=O)C[n+]2cccc(/C=N/O)c2)n1.[Cl-]`, the pKa came out at 8.54.

Consider `COc1ccc(-c2csc(NC(=O)C[n+]3ccc(/C=N/O)cc3)n2)cc1.[I-]`, for which the pKa amounted to 8.54.

Compound `CCOC(=O)c1csc(NC(=O)C[n+]2ccc(/C=N/O)cc2)n1.[Cl-]` showed a pKa of 8.32.

`CCOC(=O)c1csc(NC(=O)C[n+]2cccc(/C=N/O)c2)n1.[Cl-]`: the pKa came out at 8.17.

`O=C(C[n+]1ccc(/C=N/O)cc1)Nc1nc(-c2ccccc2)cs1.[Cl-]` yielded a pKa of 8.27.

`Cc1ccc(-c2csc(NC(=O)C[n+]3ccc(/C=N/O)cc3)n2)cc1.[Cl-]` registered a pKa of 8.38.

Turning to `Cc1ccc(-c2csc(NC(=O)C[n+]3cccc(/C=N/O)c3)n2)cc1.[Cl-]`, the pKa was determined as 8.77.

`O=C(C[n+]1ccc(/C=N/O)cc1)Nc1nccs1.[Cl-]` came in with a pKa of 8.39.

The values are drawn from ChEMBL document CHEMBL3596175, “Synthesis and in vitro kinetic evaluation of N-thiazolylacetamido monoquaternary pyridinium oximes as reactivators of sarin, O-ethylsarin and VX inhibited human acetylcholinesterase (hAChE)” (2015).
